Experimental findings from patent US20220380431A1, “GLYCOPEPTIDE ANALOGS OF SECRETIN FAMILY PEPTIDES” (ARIZONA BOARD OF REGENTS ON BEHALF OF THE UNIVERSITY OF …, priority 2017, published 2022) are described below.

Sequences of proteins named here, by UniProt entry; tags and fusion partners are left off. Residues count along the entry.
UniProt P32241, 31-457: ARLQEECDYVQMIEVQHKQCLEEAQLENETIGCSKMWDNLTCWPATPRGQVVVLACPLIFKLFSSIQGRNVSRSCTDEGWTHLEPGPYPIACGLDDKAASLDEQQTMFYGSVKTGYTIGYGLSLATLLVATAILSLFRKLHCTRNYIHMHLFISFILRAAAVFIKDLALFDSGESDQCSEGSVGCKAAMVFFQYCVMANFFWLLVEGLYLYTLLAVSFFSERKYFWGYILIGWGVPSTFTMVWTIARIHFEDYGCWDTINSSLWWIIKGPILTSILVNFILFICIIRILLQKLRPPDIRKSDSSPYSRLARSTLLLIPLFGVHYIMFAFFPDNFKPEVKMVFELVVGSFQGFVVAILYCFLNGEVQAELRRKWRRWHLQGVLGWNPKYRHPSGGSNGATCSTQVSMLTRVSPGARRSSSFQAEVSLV

pEC50: −log10 of the molar value.

Holding throughout (format): cell-based
For one assay, the target named is T1, VPAC2 (Homo sapiens, UniProt P41587).
T1 sequence (P41587 24-438): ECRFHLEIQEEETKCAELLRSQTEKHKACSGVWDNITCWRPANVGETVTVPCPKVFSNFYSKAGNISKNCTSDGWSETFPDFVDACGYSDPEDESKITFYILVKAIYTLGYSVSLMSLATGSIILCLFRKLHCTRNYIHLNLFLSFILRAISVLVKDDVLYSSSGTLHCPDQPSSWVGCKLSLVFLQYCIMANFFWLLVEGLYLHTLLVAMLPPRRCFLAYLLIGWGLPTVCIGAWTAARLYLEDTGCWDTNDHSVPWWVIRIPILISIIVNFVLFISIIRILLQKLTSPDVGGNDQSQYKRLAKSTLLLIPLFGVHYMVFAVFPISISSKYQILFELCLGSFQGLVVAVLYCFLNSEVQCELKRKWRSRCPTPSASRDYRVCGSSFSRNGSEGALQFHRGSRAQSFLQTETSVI
Kind of assay: Assay of peptides at PAC and VPAC receptors: VPAC2 (EC50/EMax).

The next assay deals with VPAC1 (Homo sapiens, UniProt P32241). The assay can be described thus: Assay of peptides at PAC and VPAC receptors: VPAC1 (EC50/EMax).
The next assay concerns the target T2, PAC1 (Homo sapiens, UniProt P41586).
T2 sequence (P41586 21-468): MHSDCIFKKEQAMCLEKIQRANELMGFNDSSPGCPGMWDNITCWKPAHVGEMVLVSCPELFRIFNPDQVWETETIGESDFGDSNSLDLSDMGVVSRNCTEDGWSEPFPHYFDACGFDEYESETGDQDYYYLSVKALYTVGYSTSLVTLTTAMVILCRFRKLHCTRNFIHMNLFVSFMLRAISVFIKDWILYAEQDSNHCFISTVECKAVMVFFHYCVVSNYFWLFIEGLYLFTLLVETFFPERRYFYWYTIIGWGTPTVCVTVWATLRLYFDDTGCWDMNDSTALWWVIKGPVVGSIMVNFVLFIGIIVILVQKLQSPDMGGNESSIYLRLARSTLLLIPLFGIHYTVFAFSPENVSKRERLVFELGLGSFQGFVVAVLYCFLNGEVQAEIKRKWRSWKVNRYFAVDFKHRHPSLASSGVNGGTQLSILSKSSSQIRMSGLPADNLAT
Kind of assay: Assay of peptides at PAC and VPAC receptors: PAC1 (EC50/EMax).

Regarding `CCC[C@H](NC(=O)[C@H](CCC(N)=O)NC(=O)[C@H](CCCCN)NC(=O)[C@H](CCCNC(=N)N)NC(=O)[C@H](Cc1ccc(O)cc1)NC(=O)[C@H](CCCNC(=N)N)NC(=O)[C@H](CO)NC(=O)[C@H](Cc1ccc(O)cc1)NC(=O)[C@H](CO)NC(=O)[C@H](CC(=O)O)NC(=O)[C@H](C)NC(=O)[C@H](Cc1ccccc1)NC(=O)[C@@H](NC(=O)CNC(=O)[C@H](CC(=O)O)NC(=O)[C@@H](CO)NC(=O)[C@@H](N)Cc1c[nH]cn1)[C@@H](C)CC)C(=O)N[C@@H](C)C(=O)N[C@H](C(=O)N[C@@H](CCCCN)C(=O)N[C@@H](CCCCN)C(=O)N[C@@H](Cc1ccc(O)cc1)C(=O)N[C@@H](CC(C)C)C(=O)N[C@@H](C)C(=O)N[C@@H](C)C(=O)N[C@H](C(=O)N[C@@H](CC(C)C)C(=O)N[C@@H](CO[C@@H]1O[C@H](CO)[C@@H](O)[C@H](O)[C@H]1O)C(N)=O)C(C)C)C(C)C` [CRA3003], the Emax (commonly the size of the effect at its maximum, as opposed to the concentration needed) is -42% on VPAC2, 93% at VPAC1 and -71% on PAC1. Further, the pEC50 (in general, the EC50 on a negative log10 scale, so that one unit is a factor of ten) on VPAC1 is 7.10.
With `CCC[C@H](NC(=O)[C@H](CCC(N)=O)NC(=O)[C@H](CCCCN)NC(=O)[C@H](CCCNC(=N)N)NC(=O)[C@H](Cc1ccc(O)cc1)NC(=O)[C@H](CCCNC(=N)N)NC(=O)[C@H](CO)NC(=O)[C@H](Cc1ccc(O)cc1)NC(=O)[C@H](CO)NC(=O)[C@H](CC(=O)O)NC(=O)[C@@H](NC(=O)[C@H](Cc1ccccc1)NC(=O)[C@@H](NC(=O)CNC(=O)[C@H](CC(=O)O)NC(=O)[C@@H](CO)NC(=O)[C@@H](N)Cc1c[nH]cn1)[C@@H](C)CC)[C@@H](C)O)C(=O)N[C@@H](C)C(=O)N[C@H](C(=O)N[C@@H](CCCCN)C(=O)N[C@@H](CCCCN)C(=O)N[C@@H](Cc1ccc(O)cc1)C(=O)N[C@@H](CC(C)C)C(=O)N[C@@H](C)C(=O)N[C@@H](C)C(=O)N[C@H](C(=O)N[C@@H](CO[C@@H]1O[C@H](CO)[C@@H](O)[C@H](O)[C@H]1O)C(N)=O)C(C)C)C(C)C` [CRA3001], the pEC50 on VPAC2 was 6.18; at VPAC1, 8.32; at PAC1 it was 7.26. The Emax on VPAC2 came out at 107%; at VPAC1 it was 90%; on PAC1, 86%.
In the case of `CCC[C@H](NC(=O)[C@H](CCC(N)=O)NC(=O)[C@H](CCCCN)NC(=O)[C@H](CCCNC(=N)N)NC(=O)[C@H](Cc1ccc(O)cc1)NC(=O)[C@H](CCCNC(=N)N)NC(=O)[C@H](CO)NC(=O)[C@H](Cc1ccc(O)cc1)NC(=O)[C@H](CO)NC(=O)[C@H](CC(=O)O)NC(=O)[C@@H](NC(=O)[C@H](Cc1ccccc1)NC(=O)[C@@H](NC(=O)CNC(=O)[C@H](CC(=O)O)NC(=O)[C@@H](CO)NC(=O)[C@@H](N)Cc1c[nH]cn1)[C@@H](C)CC)[C@@H](C)O)C(=O)N[C@@H](C)C(=O)N[C@H](C(=O)N[C@@H](CCCCN)C(=O)N[C@@H](CCCCN)C(=O)N[C@@H](Cc1ccc(O)cc1)C(=O)N[C@@H](CC(C)C)C(=O)N[C@@H](C)C(=O)N[C@@H](C)C(=O)N[C@H](C(=O)N[C@@H](CC(C)C)C(=O)N[C@@H](CO[C@@H]1O[C@H](CO)[C@@H](O)[C@H](O)[C@H]1O)C(N)=O)C(C)C)C(C)C` [CRA3000], the pEC50 on VPAC2 was 6.62; at VPAC1 it was 8.89; at PAC1, 7.59. For the same compound, the Emax on VPAC2 came to 104%; at VPAC1, 90%; on PAC1, 85%.
